# Assay results as given in patent US9145449B2, “STIP1 polypeptides and uses thereof” (Chang Gung Memorial Hospital, Linkou Branch, priority 2013, dated 2015).
# Key:
# [1] = tested on: binding of STIP1 antibody to rhSTIP1; assay: Dot blot neutralization of STIP1 antibody binding to rhSTIP1 (FIG. 9B); details: antibody/polypeptide concentration ratios from 1:1 to 1:8
# Procedure: The entire rhSTIP1 at different concentrations were dot blotted on a nylon membrane, and incubated with STIP1 antibody. The STIP1 antibody was pre-incubated with STIP1 polypeptide 520-543 (SEQ ID NO:1), at various antibody/polypeptide concentration ratios (from 1:1 to 1:8).
# STIP1 antibody = assay: Dot blot of STIP1 polypeptides incubated with STIP1 antibody (FIG. 9A); type: binding; details: dot blot on nylon membrane, rank among STIP1 polypeptides
# Procedure: In FIG. 9A, the following STIP1 polypeptides were dot blotted on a nylon membrane and incubated with an STIP1 antibody: STIP1 polypeptides with amino acid (a.a.) sequence number 445-469, 458-482, 470-494, 482-506 (SEQ ID NO:2), 495-519, 507-531, and 520-543 (SEQ ID NO:1). The entire rhSTIP1 (a.a. sequence number 1 to 543) was used as positive control (the left lane).
# [2] = tested on: ovarian cancer cells (MDAH2774); assay: MTT cell viability of transfected MDAH2774 cells; type: cell-based, human
# From the text: Human ovarian cancer cell lines TOV112D, TOV21G, SKOV3, MDAH2774, ES2, MDAH2774, BG1; human endometrial cancer cell line RL95-2, human pancreatic cancer cell line BxPC3, breast cancer cell line (MCF7) and colon cancer cell line (HT29) were obtained from ATCC (Rockville, Md., USA). Lung cancer cell line CL1-0 and nasopharyngeal carcinoma cell line NPC-BM1 were obtained from Dr. C C Wu (Department of Medical Biotechnology and Laboratory Science, Chang-Gung University, Taoyuan, Taiwan), Wu et al. Mol. Cell Proteomics 9(6):11100 (20101). Mouse ovarian cancer cell line MOSEC was obtained from Dr. C L Chang (Department of Obstetrics and Gynecology, Mackay Memorial Hospital, Taipei, Taiwan), Chang et al. Cancer Research 67:10047 (2007). TOV112D, TOV21G, SKOV3, MDAH2774, ES2 and RL95-2 were cultured in Dulbecco's modified Eagle's medium/F-12 supplemented with 10% fetal bovine serum and antibiotics at 37° C. in 5% CO2 humidified atmosphere. BxPC3, CL1-0, NPC-BM1 and MOSEC cells were cultured in RPMI 1640 media supplemented with 10% fetal bovine serum.
# Cancer cells were transfected with an STIP1 antibody in PLUSin reagent (Polyplus-transfection Inc., NY, USA) according to manufacturer's protocol. In summary, 2×10^3˜6×10^3 cancer cells were seeded in a 96-well plate overnight, followed by PBS rinse and the addition of 180 μl of OPTI-MEM. 0.6 μg of mouse STIP1 antibody were diluted in 20 mM HEPES, mixed with 1.2 μl of PLUSin by vortexing, followed by incubation at room temperature for 15 min. The antibody/PLUSin mixture was added to the cancer cells by gentle swirling the plate. The STIP1 antibody and the control IgG used in the working examples described herein are commercially available from Abnova Biotechnology Inc., (Taipei City, Taiwan). The STIP1 antibody in the working examples described herein can be used to detect recombinant full length STIP1 (SEQ ID NO:3).
# 1˜2×10^4 Cancer cells were plated per well in 96-well plates overnight, then transfected with a mouse STIP1 antibody (commercially available from Abnova Biotechnology Inc.) for 48 h before they were assessed. The inhibitory effect of the STIP1 antibody on the cancer cells was measured by the MTT [3-(4,5-Dimethylthiazol-2-yl)-2,5-Diphenyltetrazolium Bromide]method (Sigma St. Louis, Mo.). The optical density was measured at 570 nm using an automated scanning multiwell spectrophotometer (Wallac Victor2 spectrophotometer; PerkinElmer, Boston, Mass., USA).
# Given the neutralizing effect of STIP1 polypeptide 520-543 (SEQ ID NO:1) on STIP1 antibody, co-transfecting STIP1 antibody and STIP1 polypeptide 520-543 in cancer cells may reduce the suppression effect of STIP1 antibody. FIG. 10A and Table 1 show cell viability of ovarian cancer cells (MDAH2774) transfected with STIP1 antibody only (positive control) and STIP1 antibody with various concentrations of STIP1 polypeptide 520-543. Cell viability was evaluated using MTT assays. […] For example, the cell viability for STIP1 antibody was 78.81% (Table 1), the cell viability for 25 uM of STIP1 polypeptide 520-543 was 102% (Table 2), and the cell viability for STIP1 antibody and […] of STIP1 polypeptide 520-543 was 56.38% (Table 1). Similarly, the cell viability for 200 uM of STIP1 polypeptide 520-543 was 28.64% (Table 2), and the cell viability for STIP1 antibody and […] of STIP1 polypeptide 520-543 was 27.67% (Table 1).
# [3] = tested on: HSP90 and STIP1 interaction; assay: HSP90-STIP1 interaction by immunoprecipitation (FIG. 12); type: cell-based; details: various concentrations of peptide
# Procedure: The effect of STIP1 polypeptide 520-543 on HSP90 and STIP1 interaction was evaluated by treating cancer cells with various concentrations of STIP1 polypeptide 520-543. HSP90-STIP1 interaction with evaluated using immunoprecipitation method.
# [4] = tested on: human ovarian cancer cells MDAH2774; assay: In vivo MDAH2774 subcutaneous tumor in nude mice (FIG. 14); details: 100 μg three times a week via the tail vein, versus control group
# Procedure: Nude mice were inoculated with 5×10^5 cells of human ovarian cancer cells MDAH2774 subcutaneously. 100 μg of STIP1 polypeptide 520-543 was administered three times a week via the tail vein.
# phosphor-STAT3 = assay: Western blot of phospho-STAT3 in cancer cells (FIG. 15A); type: cell-based; details: MDAH2774 and ARK2, forty-eight hours, various concentrations (FIG. 15A)
# Procedure: (§1) Cell lysates were prepared with a RIPA buffer (150 mM NaCl, 20 mM Tris-Cl pH7.5, 1% Triton X-100, 1% NP40, 0.1% SDS, 0.5% deoxycholate) containing freshly added proteinase and phosphatase inhibitors (Bionovas, Toronto). Protein concentration was measured using the Bradford method. Fifty μg of each sample was electrophoresed in 10% SDS-polyacrylamide gels, and transferred to nitrocellulose membranes. STIP1 antibody was commercially available from Abnova Biotechnology and Santa Cruz Biotechnology, Santa Cruz, Calif., actin was commercially available from Sigma, the corresponding horseradish peroxidase-conjugated antibody was commercially available from Santa Cruz Biotechnology, enhanced chemiluminescence reagent was commercially available from Millipore Inc. (Millipore, Billerica, Mass.). The signal intensity of autoradiogram was quantified using the UN-SCAN-IT software (Silk Scientific, Orem, Utah), and relative intensity of each sample was normalized by the corresponding actin intensity. […] Endogenous phospho-SMAD1/5 was detected with western blot analysis.
# (§2) The effect of STIP1 polypeptide 520-543 on HSP90 function was evaluated using ovarian cancer cell line (MDAH2774) and endometrial cancer cell line (ARK2). […]
# Bcl-XL = assay: Western blot of Bcl-XL protein (FIG. 15B); type: cell-based; details: western blot FIG. 15B
# Procedure: Cell lysates were prepared with a RIPA buffer (150 mM NaCl, 20 mM Tris-Cl pH7.5, 1% Triton X-100, 1% NP40, 0.1% SDS, 0.5% deoxycholate) containing freshly added proteinase and phosphatase inhibitors (Bionovas, Toronto). Protein concentration was measured using the Bradford method. Fifty μg of each sample was electrophoresed in 10% SDS-polyacrylamide gels, and transferred to nitrocellulose membranes. STIP1 antibody was commercially available from Abnova Biotechnology and Santa Cruz Biotechnology, Santa Cruz, Calif., actin was commercially available from Sigma, the corresponding horseradish peroxidase-conjugated antibody was commercially available from Santa Cruz Biotechnology, enhanced chemiluminescence reagent was commercially available from Millipore Inc. (Millipore, Billerica, Mass.). The signal intensity of autoradiogram was quantified using the UN-SCAN-IT software (Silk Scientific, Orem, Utah), and relative intensity of each sample was normalized by the corresponding actin intensity. For antibody neutralization assay, cancer cells were cultured in serum-free medium for 24 h, and treated with rhSTIP1 for another 24 h in the presence or absence of the STIP1 monoclonal antibody, which were pre-incubated at 37° C. for 1 h. Endogenous phospho-SMAD1/5 was detected with western blot analysis.
# JAK2 = assay: Western blot of JAK2 protein in cancer cells (FIG. 15A, 15B); type: cell-based
# Procedure: as §1, §2
smiles,measurement,setting,value
CC[C@H](C)[C@H](NC(=O)[C@H](C)NC(=O)[C@@H](NC(=O)[C@H](CC(C)C)NC(=O)CNC(=O)[C@@H](NC(=O)[C@H](CC(=O)O)NC(=O)[C@H](CCSC)NC(=O)[C@H](CC(C)C)NC(=O)[C@H](CCCCN)NC(=O)[C@H](CCC(N)=O)NC(=O)[C@@H](NC(=O)[C@H](CCCCN)NC(=O)[C@H](CCC(N)=O)NC(=O)[C@H](C)NC(=O)[C@@H](NC(=O)[C@@H](NC(=O)[C@@H]1CCCN1C(=O)[C@H](CC(N)=O)NC(=O)[C@H](CCCCN)NC(=O)[C@H](CC(C)C)NC(=O)[C@H](Cc1c[nH]cn1)NC(=O)[C@@H](N)CCC(=O)O)C(C)C)[C@@H](C)CC)[C@@H](C)CC)C(C)C)[C@@H](C)CC)C(=O)N[C@@H](CCCNC(=N)N)C(=O)O [STIP1 polypeptide 520-543],neutralization of STIP1 antibody binding to rhSTIP1,[1],neutralized the binding of STIP1 antibody to rhSTIP1 in a dose dependent fashion
same,affinity to STIP1 antibody,STIP1 antibody,highest affinity
same,Original O.D,"[2]; MTT, MDAH2774, peptide 25 uM, negative control 0.15",0.15
same,Normalized O.D,"[2]; MTT, MDAH2774, peptide 25 uM, negative control = 1",1.02
same,Normalized O.D,"[2]; MTT, MDAH2774, peptide 150 uM",0.49
same,Original O.D,"[2]; MTT, MDAH2774, peptide 150 uM",0.10
same,Cell viability (%),"[2]; MTT, MDAH2774, peptide 200 uM",28.64%
same,Normalized O.D,"[2]; MTT, MDAH2774, peptide 200 uM",0.29
same,Original O.D,"[2]; MTT, MDAH2774, peptide 200 uM",0.09
same,"cancer cell viability (in words, FIG. 10B and Table 2)","[2]; MTT, MDAH2774, transfected peptides",suppresses cancer cell viability in a dose-dependent fashion
same,Cell viability (%),"[2]; human, 48 h, 150 uM",49.03%
same,binding ability of STIP1 to HSP90,[3],reduced
same,size of the tumor mass,[4],less than that of the control group
same,intracellular level of phosphor-STAT3,phosphor-STAT3,decreased in dose dependent manner
same,Bcl-XL protein,Bcl-XL,down-regulated
same,intracellular level of JAK2,"JAK2; MDAH2774 and ARK2, forty-eight hours, various concentrations (FIG. 15A)",decreased in dose dependent manner
same,JAK2 protein,JAK2; western blot FIG. 15B,down-regulated
